Shown is part of a subset that was picked to be rich in hits.
GIV Gai3 FP: blocks GIV peptide binding to rat Galpha-i3. P08753. Galpha-i3/FITC-GIV peptide fluorescence polarization, 90 min; stronger effect = lower value; scaled: aluminum fluoride 0%, vehicle 100%. percent of control (FP), % (test concentration not listed). 0.42% of 210,000 active. AID 1224905;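 active = replicate mean at 85% of control or lower, very high polarization wells dropped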;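 also: wells of about 15 µL received 100 nL stock; the first replicate is given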
HCMV UL50-53 inh: inhibitors of HCMV UL50-UL53 nuclear egress complex interaction. HTRF UL50-UL53 interaction, normalized percent inhibition. inhibition, % (no concentration beside the values). 0.15% of 190,000 active; in the data active = inhibition above about 27%, passing the limit was not always enough
An asterisk follows results filed as active; x = not tested or not shown; ! = repeats disagree.

A first look:
Compound: O=C1c2ccccc2-[n+]2ccc3c([nH]c4ccccc43)c21
- GIV Gai3 FP = x
- HCMV UL50-53 inh = 60.8*

Compound: CC(=O)N1CCCc2ccc(NC(=O)c3ccccc3)cc21
- GIV Gai3 FP = 110.6
- HCMV UL50-53 inh = -18.6

This part in full, from the start:
Compound: O=C1c2ccccc2-[n+]2ccc3c([nH]c4ccccc43)c21
- GIV Gai3 FP = x
- HCMV UL50-53 inh = 60.8*

Compound: CC(=O)N1CCCc2ccc(NC(=O)c3ccccc3)cc21
- GIV Gai3 FP = 110.6
- HCMV UL50-53 inh = -18.6

Compound: CC1=C(C(=O)Nc2ccc(F)cc2)C(c2ccc(N3CCOCC3)cc2)C2=C(CCCC2=O)N1 (configuration not stated)
- GIV Gai3 FP = 102.7
- HCMV UL50-53 inh = -9.4

Compound: CCc1ccc2nc(Nc3nc4ccccc4c(=O)[nH]3)nc(C)c2c1
- GIV Gai3 FP = 100.9
- HCMV UL50-53 inh = x

Compound: CCc1ccc2c(C)nc(NC3=NC(C)(C)C=C(C)N3)nc2c1
- GIV Gai3 FP = x
- HCMV UL50-53 inh = 48.6*

Compound: COc1cc(/C=C/C(=O)/C=C/c2ccc(N(C)C)cc2)cc(OC)c1OC
- GIV Gai3 FP = -63.7*
- HCMV UL50-53 inh = x

Compound: CCCN(CCC)C(=O)/C=C/c1cc(OC)c(OC)c(OC)c1
- GIV Gai3 FP = 105.0
- HCMV UL50-53 inh = -32.7

Compound: Cc1nc(SCC(=O)NC2CCCCC2)c2c3c(sc2n1)CCCC3
- GIV Gai3 FP = 107.6
- HCMV UL50-53 inh = 3.0

Compound: CCCCN(CC)c1ncc(C(=O)O)cc1NS(=O)(=O)c1ccc(Br)cc1
- GIV Gai3 FP = 107.8
- HCMV UL50-53 inh = -2.4

Compound: CCN(CC)c1ncc(C(=O)O)cc1NS(=O)(=O)c1ccc(Br)cc1
- GIV Gai3 FP = 85.4*
- HCMV UL50-53 inh = -4.3

Compound: CC(C)(C)NC(=O)CSc1nc2ccc(N3C(=O)c4ccccc4C3=O)cc2s1
- GIV Gai3 FP = x
- HCMV UL50-53 inh = -32.0

Compound: O=C(CCCS)NC1CCN(C(=O)COc2ccc(Cl)cc2Cl)CC1
- GIV Gai3 FP = x
- HCMV UL50-53 inh = 8.8

Compound: CO/C=C1\SC(=S)N(CCc2ccccc2)C1=O
- GIV Gai3 FP = 154.1
- HCMV UL50-53 inh = -52.1

Compound: O=C1/C(=C/c2ccc(O)cc2)SC(=S)N1CCc1ccccc1
- GIV Gai3 FP = -5.9*
- HCMV UL50-53 inh = x

Compound: O=C(NCCN1CCOCC1)C1CCN(c2nc3ccccc3n(Cc3ccccc3)c2=O)CC1
- GIV Gai3 FP = 107.0
- HCMV UL50-53 inh = 5.2

Compound: C=CCNC(=O)C1CCN(Cc2noc(-c3ccc(F)cc3)n2)CC1
- GIV Gai3 FP = 101.9
- HCMV UL50-53 inh = x

Compound: COc1cc(/C=C2\C(=O)N(c3ccc(Cl)c(C(=O)O)c3)N=C2C)cc(OC)c1OC
- GIV Gai3 FP = 99.0
- HCMV UL50-53 inh = 63.2*

Compound: CCOc1c(OC)cc(/C=C2/C(=O)N(c3ccc(S(N)(=O)=O)cc3)N=C2C)cc1[N+](=O)[O-]
- GIV Gai3 FP = 94.5
- HCMV UL50-53 inh = -9.7

Compound: COc1cc(Br)c(/C=C2\C(=O)N(c3ccc(Cl)c(C(=O)O)c3)N=C2C)cc1OC
- GIV Gai3 FP = 111.7
- HCMV UL50-53 inh = x

Compound: COc1cc(/C=C2\C(=O)N(c3ccc(S(N)(=O)=O)cc3)N=C2C)cc(Cl)c1OCc1ccccc1
- GIV Gai3 FP = 96.4
- HCMV UL50-53 inh = 60.6*

Compound: CCOc1ccccc1-n1cc2c(c1-c1ccc(C)cc1)c(=O)n(C)c(=O)n2C
- GIV Gai3 FP = 107.2
- HCMV UL50-53 inh = -37.4

Compound: O=C(CCn1c(=O)oc2cc(Br)ccc21)NCc1ccco1
- GIV Gai3 FP = 101.1
- HCMV UL50-53 inh = 5.3

Compound: Cc1c(Cl)cccc1Nc1c(C(=O)N2CCOCC2)cnc2ccccc12
- GIV Gai3 FP = 99.3
- HCMV UL50-53 inh = -14.5

Compound: COc1cc(OC)c(Nc2c(C(=O)N3CCOCC3)cnc3ccccc23)cc1Cl
- GIV Gai3 FP = 84.7*
- HCMV UL50-53 inh = -27.8

Compound: O=C1c2ccccc2NC(c2ccc(OCc3ccccc3Cl)cc2)N1c1ccc(F)cc1 (configuration not stated)
- GIV Gai3 FP = 108.5
- HCMV UL50-53 inh = x

3 entries picked at random from the list so far, as already listed:
Compound: COc1cc(OC)c(Nc2c(C(=O)N3CCOCC3)cnc3ccccc23)cc1Cl
- GIV Gai3 FP = 84.7*
- HCMV UL50-53 inh = -27.8

Compound: Cc1nc(SCC(=O)NC2CCCCC2)c2c3c(sc2n1)CCCC3
- GIV Gai3 FP = 107.6
- HCMV UL50-53 inh = 3.0

Compound: O=C(CCCS)NC1CCN(C(=O)COc2ccc(Cl)cc2Cl)CC1
- GIV Gai3 FP = x
- HCMV UL50-53 inh = 8.8

Further structures
Compound: O=c1[nH]c(=O)c2nc3c(ccc4nsnc43)nc2[nH]1
- GIV Gai3 FP = 120.3
- HCMV UL50-53 inh = x

Compound: Nc1ccc2nc3c(=O)[nH]c(=O)[nH]c3nc2c1
- GIV Gai3 FP = 17.5*
- HCMV UL50-53 inh = x

Compound: CCCc1n(CC(=O)C(C)(C)C)c2ccccc2[n+]1C
- GIV Gai3 FP = x
- HCMV UL50-53 inh = -17.3

Compound: CCCn1c(=O)c2ccc(Cl)cc2n2c(SCc3ccc(Cl)cc3)nnc12
- GIV Gai3 FP = 98.3
- HCMV UL50-53 inh = 5.2

Compound: CN(C(=O)C(C)(C)C)c1ccc(OCC(=O)N2CCCc3ccccc32)cc1
- GIV Gai3 FP = x
- HCMV UL50-53 inh = -30.4

Compound: O=C1S/C(=C\c2ccc(N3CCOCC3)o2)C(=O)N1c1ccccc1
- GIV Gai3 FP = -42.3*
- HCMV UL50-53 inh = x

Compound: Cc1ccc(/C=C2\SC(=O)N(c3ccccc3)C2=O)o1
- GIV Gai3 FP = 104.0
- HCMV UL50-53 inh = -5.2

Compound: C=CCc1cc(C=C2C(=O)NC(=O)NC2=O)cc(OC)c1OC
- GIV Gai3 FP = 106.8
- HCMV UL50-53 inh = 59.8*

Compound: CCC(=O)Oc1ccc(C=C2C(=O)NC(=O)NC2=O)cc1OC
- GIV Gai3 FP = 96.3
- HCMV UL50-53 inh = 55.9*

Compound: COc1cc(C=C2C(=O)NC(=O)NC2=O)cc(Cl)c1OCc1ccccc1Cl
- GIV Gai3 FP = 107.9
- HCMV UL50-53 inh = 3.5

Compound: COc1cc(C=C2C(=O)NC(=O)NC2=O)ccc1OC(=O)c1ccc(Cl)cc1
- GIV Gai3 FP = 106.6
- HCMV UL50-53 inh = -5.0

Compound: CCCc1nc2c(o1)NC(N)=C(C#N)C2c1ccc(OC(C)C)c(OC)c1 (configuration not stated)
- GIV Gai3 FP = x
- HCMV UL50-53 inh = -28.1

Compound: CCS(=O)(=O)Cc1ccccc1
- GIV Gai3 FP = 102.6
- HCMV UL50-53 inh = -6.4

Compound: COc1ccc(S(=O)(=O)N2CCOCC2)cc1-c1nnc2c3ccccc3c(C)nn12
- GIV Gai3 FP = 106.4
- HCMV UL50-53 inh = 54.1*

Compound: COc1ccc(S(N)(=O)=O)cc1-c1nnc2c3ccccc3c(C)nn12
- GIV Gai3 FP = 110.1
- HCMV UL50-53 inh = x

Compound: Nc1nnc2cc(C(=O)c3cc(F)ccc3O)cnn12
- GIV Gai3 FP = x
- HCMV UL50-53 inh = -9.6

Compound: Cc1ccc(O)c(C(=O)c2cnn3c(N)nnc3c2)c1
- GIV Gai3 FP = x
- HCMV UL50-53 inh = 50.7*

Compound: Cc1c(-c2ccnc(N)n2)cnn1-c1ccccc1
- GIV Gai3 FP = 105.0
- HCMV UL50-53 inh = -24.1

Compound: Nc1nc2c(s1)CCc1c-2cnn1-c1ccccc1
- GIV Gai3 FP = x
- HCMV UL50-53 inh = 62.7*

Compound: CCOc1ccccc1NC(=O)COC(=O)CCN1C(=O)C2CC=CCC2C1=O (configuration not stated)
- GIV Gai3 FP = x
- HCMV UL50-53 inh = -4.5

Compound: O=C(Nc1nc2n(n1)C(c1ccc(Cl)cc1)C=C(c1ccccc1)N2)c1ccco1 (configuration not stated)
- GIV Gai3 FP = -44.3*
- HCMV UL50-53 inh = -35.5

Compound: COc1ccc(C2C=C(c3ccc(Cl)cc3)Nc3nc(-c4ccc(Cl)cc4)nn32)cc1 (configuration not stated)
- GIV Gai3 FP = -8.2*!
- HCMV UL50-53 inh = 6.4

Compound: COc1ccc(C2C=C(c3ccccc3)Nc3nc(NC(=O)c4ccc(C)cc4)nn32)cc1 (configuration not stated)
- GIV Gai3 FP = 128.0
- HCMV UL50-53 inh = -29.2

Compound: Cc1ccc(C2=CC(c3ccc(Cl)cc3)n3nc(-c4ccc(C)cc4)nc3N2)cc1 (configuration not stated)
- GIV Gai3 FP = 101.3
- HCMV UL50-53 inh = 12.5

Compound: COc1ccc(C(=O)Nc2nc3n(n2)C(c2ccc(Cl)cc2)C=C(c2ccccc2)N3)cc1OC (configuration not stated)
- GIV Gai3 FP = 40.5*
- HCMV UL50-53 inh = -65.4

Compound: O=C(Nc1nc2n(n1)C(c1ccc(F)cc1)C=C(c1ccccc1)N2)c1ccco1 (configuration not stated)
- GIV Gai3 FP = 130.2
- HCMV UL50-53 inh = -50.9

Compound: CCN1C(=O)C(=Cc2ccc(N3CCCC3)cc2)C(=O)N(CC)C1=S
- GIV Gai3 FP = 117.1
- HCMV UL50-53 inh = -14.5

Compound: Cc1cccc(-c2cncc(C(=O)Nc3ccc(C)cc3C)c2)c1
- GIV Gai3 FP = 101.4
- HCMV UL50-53 inh = x

Compound: COC(=O)C1=C(C)N(Cc2ccccc2)C(=O)/C1=C\c1cccc(Cl)c1
- GIV Gai3 FP = 50.6*
- HCMV UL50-53 inh = x

Compound: COC(=O)C1=C(C)N(Cc2ccccc2)C(=O)/C1=C\c1cccc(O)c1
- GIV Gai3 FP = 107.9
- HCMV UL50-53 inh = -4.7

Compound: COC(=O)c1cc(=O)n2c(nc3cc(C(F)(F)F)ccc32)s1
- GIV Gai3 FP = 107.6
- HCMV UL50-53 inh = -4.9

Compound: CN1CCC(OC(=O)c2ccc(F)cc2)CC1
- GIV Gai3 FP = x
- HCMV UL50-53 inh = -11.3

Compound: CC(=O)N1N=C(c2ccccc2)CC1c1cc2cc3c(cc2nc1Cl)OCO3 (configuration not stated)
- GIV Gai3 FP = 104.5
- HCMV UL50-53 inh = -22.6

Compound: CCS(=O)(=O)N1N=C(c2ccccc2)CC1c1cc2cc3c(cc2nc1Cl)OCCO3 (configuration not stated)
- GIV Gai3 FP = -53.2*
- HCMV UL50-53 inh = x

Compound: O=C(O)CC(c1ccccc1Br)N1Cc2ccccc2C1=O (configuration not stated)
- GIV Gai3 FP = x
- HCMV UL50-53 inh = 2.7

Compound: CC1C/C(=C/c2cccnc2)C(=O)/C(=C/c2cccnc2)C1 (configuration not stated)
- GIV Gai3 FP = x
- HCMV UL50-53 inh = -17.6

Compound: Cn1c(-c2ccccc2)cc(C=Nc2ccccc2)c1O
- GIV Gai3 FP = 116.8
- HCMV UL50-53 inh = x

Compound: CC(C)N=Cc1cc2n(c1O)-c1ccccc1C2=O
- GIV Gai3 FP = -20.3*
- HCMV UL50-53 inh = -120.3

Compound: COc1cc(OC)c(NC(=O)N2CCN(Cc3nc4cccnc4n3-c3ccccc3)CC2)cc1Cl
- GIV Gai3 FP = 103.6
- HCMV UL50-53 inh = -10.4

Compound: Cc1cccc(-c2nc3c(cnn3-c3ccccc3)c(=O)n2-c2ccc(Br)cc2)c1
- GIV Gai3 FP = 110.4
- HCMV UL50-53 inh = 56.5*

Compound: Cc1ccc(-n2c(-c3cccc(C)c3)nc3c(cnn3-c3ccccc3)c2=O)cc1
- GIV Gai3 FP = 109.0
- HCMV UL50-53 inh = 6.9

Compound: CN(C)c1ccc(/C=C2/C(=O)c3ccc(C(=O)O)cc3C2=O)cc1
- GIV Gai3 FP = -72.6*
- HCMV UL50-53 inh = -76.8

Compound: CC(C)(C)C1(C)OC(=O)C(=Cc2ccc(C(=O)O)cc2)C(=O)O1 (configuration not stated)
- GIV Gai3 FP = 93.3
- HCMV UL50-53 inh = -4.1

Assay outcomes (PubChem)
